Laboratory results: paper PMC3479967, “Drug-Drug Interactions Potential of Icariin and Its Intestinal Metabolites via Inhibition of Intestinal UDP-Glucuronosyltransferases” (Evidence-based Complementary and Alternative Medicine : eCAM, 2012)

How the values were obtained:
UGT1A7 = biological target: T1, UGT1A7 (Homo sapiens, UniProt Q9HAW7); experiment: Inhibition of recombinant UGT1A7 activity (4-MU glucuronidation)
T1 sequence (Q9HAW7 26-530): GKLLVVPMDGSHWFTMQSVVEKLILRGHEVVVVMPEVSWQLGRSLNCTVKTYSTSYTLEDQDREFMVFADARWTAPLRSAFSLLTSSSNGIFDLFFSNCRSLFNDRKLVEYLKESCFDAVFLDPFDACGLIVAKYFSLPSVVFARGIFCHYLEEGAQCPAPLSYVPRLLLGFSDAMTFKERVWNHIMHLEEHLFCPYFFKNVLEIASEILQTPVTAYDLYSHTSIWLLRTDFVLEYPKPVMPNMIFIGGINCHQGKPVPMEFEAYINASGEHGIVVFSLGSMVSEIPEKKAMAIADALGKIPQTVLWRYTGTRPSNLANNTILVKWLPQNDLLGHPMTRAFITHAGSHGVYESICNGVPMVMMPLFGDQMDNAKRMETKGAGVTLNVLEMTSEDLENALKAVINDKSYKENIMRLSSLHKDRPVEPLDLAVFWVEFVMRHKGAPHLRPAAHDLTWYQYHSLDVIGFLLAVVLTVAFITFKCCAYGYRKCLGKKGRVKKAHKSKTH
Experimental: A panel of recombinant human UGT supersomes (UGT1A1, UGT1A3, UGT1A4, UGT1A6, UGT1A7, UGT1A8, UGT1A9, UGT1A10, UGT2B4, UGT2B7, UGT2B15, and UGT2B17) expressed in baculovirus-infected insect cells were purchased from BD Gentest Corp. (Woburn, MA, USA).
4-MU, a nonselective substrate of UGTs, was used as probe substrate for all UGTs except UGT1A4. Incubations with each individual enzyme were conducted using conditions previously described. There was a 5 min preincubation step at 37°C before the reaction was started by addition of UDPGA. The incubation mixtures were then centrifuged at 20,500 ×g for 15 min to obtain the supernatant. Aliquots (20 μL) were then analyzed by HPLC. The HPLC system (SHIMADZU, Kyoto, Japan) consisted of an SCL-10A system controller, two LC-10AT pumps, a SIL-10A auto injector, and a SPD-10AVP UV detector. Chromatographic separation was achieved using a Kromasil ODS column (4.6 × 150 mm I.D., 5 μm particle size) at a flow rate of 1 mL/min and UV detection at 316 nm. The mobile phase consisted of 10 mM KH2PO4, pH 2.7 (A) and acetonitrile (B). […]
Inhibition data from experiments were graphically represented by Dixon plots. K i values were calculated by nonlinear regression using the equations for competitive inhibition (1), noncompetitive inhibition (2), or mixed inhibition (3), [22] […]

[1] = Calculation of possible maximum concentrations in blood; design: species or system human; conditions: calculated, after a single oral administration of Epimedium pubescens decoction

For Icariside II, the IC50 (UGT1A7; read-out: IC50 for inhibition of UGT1A7 activity, recombinant human UGT1A7, 15 μM 4-MU, mean ± SD) was 2.8 ± 0.1 µM, the Ki (UGT1A7; read-out: Ki against UGT1A7, recombinant UGT1A7, 4-MU substrate, mean ± standard error) was 6.2 ± 0.5 µM and the “Possible maximum concentration in human blood” value [1] was roughly 1.5 nM.
